Laboratory results: patent EP4831180A1, “NOVEL KINASE INHIBITOR” (dated 2026)

Sequences of proteins named here, by UniProt entry; tags and fusion partners are left off. Residues count along the entry.
UniProt Q9UM73, 19-1620 L1196M/G1202R limits assumed: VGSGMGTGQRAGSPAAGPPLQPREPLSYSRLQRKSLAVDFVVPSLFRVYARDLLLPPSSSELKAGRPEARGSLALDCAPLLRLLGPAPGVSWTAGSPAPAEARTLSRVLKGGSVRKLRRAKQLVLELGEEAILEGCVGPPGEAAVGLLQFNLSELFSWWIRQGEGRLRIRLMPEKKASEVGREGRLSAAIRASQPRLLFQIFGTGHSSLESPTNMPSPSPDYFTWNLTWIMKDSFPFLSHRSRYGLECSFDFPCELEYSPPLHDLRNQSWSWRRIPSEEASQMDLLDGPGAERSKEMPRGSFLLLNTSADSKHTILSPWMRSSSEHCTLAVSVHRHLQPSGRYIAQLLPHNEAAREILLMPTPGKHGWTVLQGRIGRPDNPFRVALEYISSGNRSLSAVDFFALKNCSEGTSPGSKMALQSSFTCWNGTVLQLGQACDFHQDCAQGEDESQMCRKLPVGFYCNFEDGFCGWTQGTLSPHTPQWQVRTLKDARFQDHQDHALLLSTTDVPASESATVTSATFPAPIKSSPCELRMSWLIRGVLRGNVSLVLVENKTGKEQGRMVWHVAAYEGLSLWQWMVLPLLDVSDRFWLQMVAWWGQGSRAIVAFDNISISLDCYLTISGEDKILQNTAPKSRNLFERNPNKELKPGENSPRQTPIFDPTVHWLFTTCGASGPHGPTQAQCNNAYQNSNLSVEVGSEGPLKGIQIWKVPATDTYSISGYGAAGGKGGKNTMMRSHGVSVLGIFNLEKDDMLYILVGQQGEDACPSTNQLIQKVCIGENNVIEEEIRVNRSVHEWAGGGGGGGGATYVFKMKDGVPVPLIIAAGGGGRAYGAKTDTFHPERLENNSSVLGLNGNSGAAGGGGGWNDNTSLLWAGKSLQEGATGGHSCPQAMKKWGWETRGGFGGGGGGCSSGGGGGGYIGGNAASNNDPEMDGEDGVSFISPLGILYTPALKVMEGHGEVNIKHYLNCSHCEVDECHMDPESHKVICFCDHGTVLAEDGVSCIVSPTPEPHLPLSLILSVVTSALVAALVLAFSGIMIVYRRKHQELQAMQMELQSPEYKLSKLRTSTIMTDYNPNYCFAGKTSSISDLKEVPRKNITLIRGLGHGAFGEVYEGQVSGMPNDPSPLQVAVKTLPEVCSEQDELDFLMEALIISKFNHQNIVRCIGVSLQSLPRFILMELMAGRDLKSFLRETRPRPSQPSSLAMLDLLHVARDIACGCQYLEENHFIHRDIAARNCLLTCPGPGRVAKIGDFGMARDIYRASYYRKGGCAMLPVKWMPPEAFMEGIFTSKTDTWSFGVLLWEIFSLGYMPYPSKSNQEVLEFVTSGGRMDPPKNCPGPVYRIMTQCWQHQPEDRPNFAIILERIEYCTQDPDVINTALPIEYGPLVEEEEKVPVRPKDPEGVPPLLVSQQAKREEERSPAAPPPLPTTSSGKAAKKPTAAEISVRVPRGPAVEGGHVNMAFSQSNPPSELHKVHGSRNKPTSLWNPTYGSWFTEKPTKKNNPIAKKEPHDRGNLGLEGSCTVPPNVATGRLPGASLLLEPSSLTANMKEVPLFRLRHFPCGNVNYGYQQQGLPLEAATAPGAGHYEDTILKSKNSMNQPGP

Each compound was assayed against His-ALK^G1202R/L1196M (Homo sapiens, UniProt Q9UM73, G1202R/L1196M) (assay: ALK G1202R/L1196M compound mutant kinase inhibitory activity assay (HTRF)). Details: read-out: ALK^G1202R/L1196M Enzyme, IC50, ATP 4 µM, enzyme 0.5 nM, 1 hour at 23 °C.

Compound | IC50 [nM]
CCn1nc(C#Cc2cn(C3CC3)cn2)c2c1-c1cnc(N)c(c1)O[C@H](C)c1cc(F)ccc1-c1nn(C)cc1C2 | < 5
CCn1nc(C#Cc2ccc(C(C)(C)O)cc2)c2c1-c1cnc(N)c(c1)O[C@H](C)c1cc(F)ccc1-c1nn(C)cc1C2 | < 5
CCn1nc(C#CC2CCCOC2)c2c1-c1cnc(N)c(c1)O[C@H](C)c1cc(F)ccc1-c1nn(C)cc1C2 (stereo partly drawn) | < 5
CCn1nc(C#Cc2ccc(OC)cn2)c2c1-c1cnc(N)c(c1)O[C@H](C)c1cc(F)ccc1-c1nn(C)cc1C2 | < 5
CCn1nc(C#Cc2ncccn2)c2c1-c1cnc(N)c(c1)O[C@H](C)c1cc(F)ccc1-c1nn(C)cc1C2 | < 5
CCn1nc(C#Cc2cccnc2OC)c2c1-c1cnc(N)c(c1)O[C@H](C)c1cc(F)ccc1-c1nn(C)cc1C2 | < 5
CCn1nc(C#CC2CNC2)c2c1-c1cnc(N)c(c1)O[C@H](C)c1cc(F)ccc1-c1nn(C)cc1C2 | < 5
(19R)-3-ethyl-16-fluoro-10,19-dimethyl-5-((1-(oxetan-3-yl)pyrazol-4-yl)et hynyl)-20-oxa-3,4,10,11,23-pentaazapentacyclo[19.3.1.0^8,12.0^13,18.0^2,6]pentacosa-1(25),2(6),4,8 (9),11,13(18),14,16,21(22),23-decaen-22-amine | < 5
CCn1nc(N=S(C)(C)=O)c2c1-c1cnc(N)c(c1)O[C@H](C)c1cc(F)ccc1-c1nn(C(F)F)cc1C2 | < 5
C#Cc1nn(CC)c2c1Cc1nc(C)oc1-c1ccc(F)cc1[C@@H](C)Oc1cc-2cnc1N | < 5
CCn1nc(C#Cc2cn(CCOC)cn2)c2c1-c1cnc(N)c(c1)O[C@H](C)c1cc(F)ccc1-c1nn(C)cc1C2 | < 5
CCn1nc(/C=C/COC2COC2)c2c1-c1cnc(N)c(c1)O[C@H](C)c1cc(F)ccc1-c1nn(C)cc1C2 | < 5
C#Cc1nn(CC)c2c1Cc1nc(C)sc1-c1ccc(F)cc1[C@@H](C)Oc1cc-2cnc1N | < 5
CCn1nc(C#Cc2cn(CC(C)(C)O)cn2)c2c1-c1cnc(N)c(c1)O[C@H](C)c1cc(F)ccc1-c1nn(C)cc1C2 | < 5
CCn1nc(C=C2CNC2)c2c1-c1cnc(N)c(c1)O[C@H](C)c1cc(F)ccc1-c1nn(C)nc1C2 | < 5
CCn1nc(C#CC2CNC2)c2c1-c1cnc(N)c(c1)O[C@H](C)c1cc(F)ccc1-c1nn(C)nc1C2 | < 5
CCn1nc(C#Cc2ccc3nccn3c2)c2c1-c1cnc(N)c(c1)O[C@H](C)c1cc(F)ccc1-c1nn(C)cc1C2 | < 5
CCn1nc(C#Cc2cccc(N)n2)c2c1-c1cnc(N)c(c1)O[C@H](C)c1cc(F)ccc1-c1nn(C)cc1C2 | < 5
CCn1nc(C#CC2COC2)c2c1-c1cnc(N)c(c1)O[C@H](C)c1cc(F)ccc1-c1nn(C)nc1C2 | < 5
CCn1nc(C#Cc2cnc(C(C)(C)O)nc2)c2c1-c1cnc(N)c(c1)O[C@H](C)c1cc(F)ccc1-c1nn(C)cc1C2 | < 5
CCn1nc(C#Cc2ccncc2)c2c1-c1cnc(N)c(c1)O[C@H](C)c1cc(F)ccc1-c1nn(C)cc1C2 | < 5
CCn1nc(C#Cc2cnn(CC(F)(F)F)c2)c2c1-c1cnc(N)c(c1)O[C@H](C)c1cc(F)ccc1-c1nn(C)cc1C2 | < 5
C#Cc1nn(CC)c2c1Cn1ccnc1-c1ccc(F)cc1[C@@H](C)Oc1cc-2cnc1N | < 5
CCn1nc(C#Cc2cn(C(F)F)cn2)c2c1-c1cnc(N)c(c1)O[C@H](C)c1cc(F)ccc1-c1nn(C)cc1C2 | < 5
CCn1nc(C#Cc2ccc(F)cc2)c2c1-c1cnc(N)c(c1)O[C@H](C)c1cc(F)ccc1-c1nn(C)cc1C2 | < 5

Compound | IC50 [nM]
CCn1nc(C#CC(C)C)c2c1-c1cnc(N)c(c1)O[C@H](C)c1cc(F)ccc1-c1nn(C)cc1C2 | < 5
C#Cc1nn(CC)c2c1Cc1cn(C(F)F)nc1-c1ccc(F)cc1[C@@H](C)Oc1cc-2cnc1N | < 5
CCn1nc(C#Cc2ccc(Cl)cc2)c2c1-c1cnc(N)c(c1)O[C@H](C)c1cc(F)ccc1-c1nn(C)cc1C2 | < 5
CCn1nc(C#Cc2nnc(C)s2)c2c1-c1cnc(N)c(c1)O[C@H](C)c1cc(F)ccc1-c1nn(C)cc1C2 | < 5
CCn1nc(C#CC2CN(C)CCO2)c2c1-c1cnc(N)c(c1)O[C@H](C)c1cc(F)ccc1-c1nn(C)cc1C2 (stereo partly drawn) | < 5
CCn1nc(C#CC(C)(C)NC(=O)NC)c2c1-c1cnc(N)c(c1)O[C@H](C)c1cc(F)ccc1-c1nn(C)cc1C2 | < 5
CCn1nc(C#Cc2cnn(C)n2)c2c1-c1cnc(N)c(c1)O[C@H](C)c1cc(F)ccc1-c1nn(C)cc1C2 | < 5
CCn1nc(C#Cc2cncc(C#N)c2)c2c1-c1cnc(N)c(c1)O[C@H](C)c1cc(F)ccc1-c1nn(C)cc1C2 | < 5
C#Cc1nn(C(F)F)c2c1Cc1cn(C)nc1-c1ccc(F)cc1[C@@H](C)Oc1cc-2cnc1N | < 5
CCn1nc(C#CC2CCCCN2C)c2c1-c1cnc(N)c(c1)O[C@H](C)c1cc(F)ccc1-c1nn(C)cc1C2 (stereo partly drawn) | < 5
CCn1nc(C#CN=S2(=O)CCCCC2)c2c1-c1cnc(N)c(c1)O[C@H](C)c1cc(F)ccc1-c1nn(C)cc1C2 | < 5
CCn1nc(C#Cc2cncn2C2COC2)c2c1-c1cnc(N)c(c1)O[C@H](C)c1cc(F)ccc1-c1nn(C)cc1C2 | < 5
CCn1nc(C#Cc2cccc(=O)[nH]2)c2c1-c1cnc(N)c(c1)O[C@H](C)c1cc(F)ccc1-c1nn(C)cc1C2 | < 5
CCn1nc(C#CC2CCNCC2)c2c1-c1cnc(N)c(c1)O[C@H](C)c1cc(F)ccc1-c1nn(C)cc1C2 | < 5
CCn1nc(/C=C/C2CC2)c2c1-c1cnc(N)c(c1)O[C@H](C)c1cc(F)ccc1-c1nn(C)cc1C2 | < 5
CCn1nc(C#Cc2ccn(C)c2)c2c1-c1cnc(N)c(c1)O[C@H](C)c1cc(F)ccc1-c1nn(C)cc1C2 | < 5
CCn1nc(C#Cc2ccc(=O)[nH]c2)c2c1-c1cnc(N)c(c1)O[C@H](C)c1cc(F)ccc1-c1nn(C)cc1C2 | < 5
C#CCC1Oc2cc(cnc2N)-c2c(cnn2CC)Cc2nn(C)nc2-c2ccc(F)cc21 (stereo not drawn) | < 5
CCn1nc(C#Cc2cccnc2)c2c1-c1cnc(N)c(c1)O[C@H](C)c1cc(F)ccc1-c1nn(C)nc1C2 | < 5
CCn1nc(/C=C/c2ccncc2)c2c1-c1cnc(N)c(c1)O[C@H](C)c1cc(F)ccc1-c1nn(C)nc1C2 | < 5
CCn1nc(C#Cc2c[nH]cn2)c2c1-c1cnc(N)c(c1)O[C@H](C)c1cc(F)ccc1-c1nn(C)cc1C2 | < 5
CCn1nc(C#Cc2cc(OC)cc(OC)c2)c2c1-c1cnc(N)c(c1)O[C@H](C)c1cc(F)ccc1-c1nn(C)cc1C2 | < 5
CCn1nc(/C=C/COC)c2c1-c1cnc(N)c(c1)O[C@H](C)c1cc(F)ccc1-c1nn(C(F)F)cc1C2 | < 5
CCn1nc(C#CCN2CCCCC2)c2c1-c1cnc(N)c(c1)O[C@H](C)c1cc(F)ccc1-c1nn(C)cc1C2 | < 5
CCn1ncc2c1-c1cnc(N)c(c1)O[C@H](C)c1cc(F)ccc1-c1nn(C)c(N=S(C)(C)=O)c1C2 | < 5

Compound | IC50 [nM]
CCn1nc(C#CC2CCCCO2)c2c1-c1cnc(N)c(c1)O[C@H](C)c1cc(F)ccc1-c1nn(C)cc1C2 (stereo partly drawn) | < 5
CCn1nc(C#CCC2(O)COC2)c2c1-c1cnc(N)c(c1)O[C@H](C)c1cc(F)ccc1-c1nn(C)cc1C2 | < 5
CCn1nc(C=C(C)C)c2c1-c1cnc(N)c(c1)O[C@H](C)c1cc(F)ccc1-c1nn(C)cc1C2 | < 5
C=Cc1nn(CC)c2c1Cc1nn(C)nc1-c1ccc(F)cc1[C@@H](C)Oc1cc-2cnc1N | < 5
CCn1nc(C#Cc2nnc(C)o2)c2c1-c1cnc(N)c(c1)O[C@H](C)c1cc(F)ccc1-c1nn(C)cc1C2 | < 5
CCn1nc(C#CC2CC(F)(F)C2)c2c1-c1cnc(N)c(c1)O[C@H](C)c1cc(F)ccc1-c1nn(C)cc1C2 | < 5
C#Cc1nn(CC)c2c1Cc1nsnc1-c1ccc(F)cc1[C@@H](C)Oc1cc-2cnc1N | < 5
CCn1nc(C#Cc2ccncc2)c2c1-c1cnc(N)c(c1)O[C@H](C)c1cc(F)ccc1-c1nn(C)nc1C2 | < 5
CCn1nc(C#Cc2ccncn2)c2c1-c1cnc(N)c(c1)O[C@H](C)c1cc(F)ccc1-c1nn(C)cc1C2 | < 5
CCn1nc(C#CC2(O)CNC2)c2c1-c1cnc(N)c(c1)O[C@H](C)c1cc(F)ccc1-c1nn(C)nc1C2 | < 5
CCn1nc(C#Cc2cccnc2N)c2c1-c1cnc(N)c(c1)O[C@H](C)c1cc(F)ccc1-c1nn(C)cc1C2 | < 5
CCn1nc(C#CC2(O)COC2)c2c1-c1cnc(N)c(c1)O[C@H](C)c1cc(F)ccc1-c1nn(C)nc1C2 | < 5
C#Cc1nn(CC)c2c1Cc1ccc(OC)nc1-c1ccc(F)cc1[C@@H](C)Oc1cc-2cnc1N | < 5
CCn1nc(C#CC(=O)NC)c2c1-c1cnc(N)c(c1)O[C@H](C)c1cc(F)ccc1-c1nn(C)cc1C2 | < 5
C#Cc1nn(CC)c2c1Cc1cncnc1-c1ccc(F)cc1[C@@H](C)Oc1cc-2cnc1N | < 5
CCn1nc(C#Cc2ccc(N)nn2)c2c1-c1cnc(N)c(c1)O[C@H](C)c1cc(F)ccc1-c1nn(C)cc1C2 | < 5
CCn1nc(C#CC(C)(C)S(C)(=O)=O)c2c1-c1cnc(N)c(c1)O[C@H](C)c1cc(F)ccc1-c1nn(C)cc1C2 | < 5
CCn1nc(C#Cc2cn(C)cn2)c2c1-c1cnc(N)c(c1)O[C@H](C)c1cc(F)ccc1-c1sc(C)nc1C2 | < 5
CCn1nc(C#Cc2cnc(N)s2)c2c1-c1cnc(N)c(c1)O[C@H](C)c1cc(F)ccc1-c1nn(C)cc1C2 | < 5
CCn1nc(C#Cc2ccc(C(F)(F)F)cc2)c2c1-c1cnc(N)c(c1)O[C@H](C)c1cc(F)ccc1-c1nn(C)cc1C2 | < 5
CCn1nc(C#Cc2cn(C)c(C)n2)c2c1-c1cnc(N)c(c1)O[C@H](C)c1cc(F)ccc1-c1nn(C)cc1C2 | < 5
CCn1nc(C#CC(=O)N(C)C)c2c1-c1cnc(N)c(c1)O[C@H](C)c1cc(F)ccc1-c1nn(C)cc1C2 | < 5
CCn1nc(C#CC(C)(C)NS(=O)(=O)C2CC2)c2c1-c1cnc(N)c(c1)O[C@H](C)c1cc(F)ccc1-c1nn(C)cc1C2 | < 5
CCn1nc(C#CC2(O)CNC2)c2c1-c1cnc(N)c(c1)O[C@H](C)c1cc(F)ccc1-c1nn(C)cc1C2 | < 5
CCn1nc(C#Cc2cnc3cccnn23)c2c1-c1cnc(N)c(c1)O[C@H](C)c1cc(F)ccc1-c1nn(C)cc1C2 | < 5
